How the values were obtained:
Escherichia coli = test: Antimicrobial activity against Escherichia coli ATCC 25922 assessed as growth inhibition incubated overnight at 37degC by visual and photometry based method; assay type: functional
Pseudomonas aeruginosa = test: Antimicrobial activity against Pseudomonas aeruginosa ATCC 27853 assessed as growth inhibition incubated overnight at 37degC by visual and photometry based method; assay type: functional

GENTAMICIN
MIC (Escherichia coli): 0.5 µg/mL
MIC (Pseudomonas aeruginosa): 0.5 µg/mL

Source: ChEMBL document CHEMBL4043163, “Methyl propiolate and 3-butynone: Starting points for synthesis of amphiphilic 1,2,3-triazole peptidomimetics for antimicrobial evaluation” (Bioorg Med Chem, 2017)
